Here are results for one molecule from patent publication US5807846A, “Phosphonamide ACAT inhibitors” (Warner-Lambert Company, priority 1997, dated 1998).

In assay [1] the test system is acyl-CoA:cholesterol acyltransferase (ACAT). The experiment in a line: in vitro ACAT inhibition (LAI): radiolabeled cholesterol oleate formed from radiolabeled oleic acid in rat liver microsomes. The conditions noted are these: read-out: LAI (IC50, concentration of test compound required to inhibit the activity of the enzyme by 50%). It counts as biochemical. (Liver microsomes are vesicles of endoplasmic reticulum, rich in cytochrome P450 enzymes.)

A further assay relates to cholesterol. The experiment in a line: APCC in vivo screen: rats on high fat, high cholesterol diet (PCC), blood cholesterol analysis. Set-up: species or system male Sprague-Dawley rats. As to conditions: dose 10 mg/kg, single dose at 4 PM, PCC diet overnight, blood cholesterol at 8 AM.

As to `COP(=O)(NC(=O)Nc1c(C(C)C)cccc1C(C)C)Oc1c(C(C)C)cccc1C(C)C` (centres unmarked), the IC50 in assay [1] amounted to 950 nM. The same molecule returned an APCC in the assay on cholesterol of -33.
